In the assay the target is Histones H3–H4 (H3 C110A-H4 E63C), Alexa488-labeled (Xenopus laevis, maleimide AlexaFluor-488 on E63C). As to the kind of experiment: fluorescence polarisation; 10 nM Alexa488-labeled H3–H4 with increasing CAF-1, Polϵ, Polδ or RPA; 25 mM TRIS pH 7.5, 300 mM NaCl, 5% glycerol, 1 mM EDTA, 0.01% IGEPAL, 0.01% CHAPS, 1 mM DTT; one site binding curve. The note with it: both partners purified.

One molecule from article PMC10164577, “CAF-1 deposits newly synthesized histones during DNA replication using distinct mechanisms on the leading and lagging strands” (Nucleic Acids Research, 2022) can be followed below.

B1: RPA (complex)
chain 1: MSSVQLSRGDFHSIFTNKQRYDNPTGGVYQVYNTRKSDGANSNRKNLIMISDGIYHMKALLRNQAASKFQSMELQRGDIIRVIIAEPAIVRERKKYVLLVDDFELVQSRADMVNQTSTFLDNYFSEHPNETLKDEDITDSGNVANQTNASNAGVPDMLHSNSNLNANERKFANENPNSQKTRPIFAIEQLSPYQNVWTIKARVSYKGEIKTWHNQRGDGKLFNVNFLDTSGEIRATAFNDFATKFNEILQEGKVYYVSKAKLQPAKPQFTNLTHPYELNLDRDTVIEECFDESNVPKTHFNFIKLDAIQNQEVNSNVDVLGIIQTINPHFELTSRAGKKFDRRDITIVDDSGFSISVGLWNQQALDFNLPEGSVAAIKGVRVTDFGGKSLSMGFSSTLIPNPEIPEAYALKGWYDSKGRNANFITLKQEPGMGGQSAASLTKFIAQRITIARAQAENLGRSEKGDFFSVKAAISFLKVDNFAYPACSNENCNKKVLEQPDGTWRCEKCDTNNARPNWRYILTISIIDETNQLWLTLFDDQAKQLLGVDANTLMSLKEEDPNEFTKITQSIQMNEYDFRIRAREDTYNDQSRIRYTVANLHSLNYRAEADYLADELSKALLA
chain 2: MATYQPYNEYSSVTGGGFENSESRPGSGESETNTRVNTLTPVTIKQILESKQDIQDGPFVSHNQELHHVCFVGVVRNITDHTANIFLTIEDGTGQIEVRKWSEDANDLAAGNDDSSGKGYGSQVAQQFEIGGYVKVFGALKEFGGKKNIQYAVIKPIDSFNEVLTHHLEVIKCHSIASGMMKQPLESASNNNGQSLFVKDDNDTSSGSSPLQRILEFCKKQCEGKDANSFAVPIPLISQSLNLDETTVRNCCTTLTDQGFIYPTFDDNNFFAL
chain 3: MASETPRVDPTEISNVNAPVFRIIAQIKSQPTESQLILQSPTISSKNGSEVEMITLNNIRVSMNKTFEIDSWYEFVCRNNDDGELGFLILDAVLCKFKENEDLSLNGVVALQRLCKKYPEIY
Turning to B1, the Kd (commonly the free concentration of one partner at which half of the binding sites on the other are occupied at equilibrium, for simple one-to-one binding) is no less than 300 nM.
